# Measurements published in paper PMC11878239, “Biochemical investigations using mass spectrometry to monitor JMJD6-catalysed hydroxylation of multi-lysine containing bromodomain-derived substrates” (RSC Chemical Biology, 2025).
# Where “and” joins values, the source holds several entries; their conditions need not be identical. Equal entries are not always repeated.
# Tests used:
# [1] = tested on: BBOX; set-up: method as in PMID 25030770, PMID 24317009; conditions: BBOX (0.05 μM), γ-butyrobetaine as substrate; 1H NMR turnover assay; cited from earlier work
# [2] = tested on: KDM4C; set-up: method as in PMID 21859681; conditions: KDM4C (0.5 μM), ARTAQTARK(me3)STGGIA as substrate; SPE-MS; cited from earlier work
# [3] = tested on: AspH315–758; set-up: method as in PMID 32107312; conditions: AspH315–758 (0.1 μM), hFX-CP101–119 as substrate; SPE-MS; 2OG or Fe(II); cited from earlier work
# [4] = target: T1, full-length His6-JMJD6 (Homo sapiens, UniProt Q6NYC1); assay: SPE-MS kinetics of JMJD6-catalysed lysyl hydroxylation (2OG, Fe(II), LAA, BRD-derived peptides); format: biochemical
# T1 construct: An enzyme mixture (10 μL) containing full-length His6-JMJD6 (5 μM; final concentration: 0.05 μM); made in house; host or cells: Escherichia coli BL21 (DE3), pET-28a(+) plasmid
# Protocol: Recombinant human JMJD6 (full length with a N-terminal His6-tag) was produced in Escherichia coli BL21 (DE3) cells using a pET-28a(+) plasmid and purified by standard Ni(II)-affinity size-exclusion chromatography, as previously reported.[40] […] Purified JMJD6 was stored at −78 °C; fresh aliquots were used for all JMJD6 assays.
# Peptides were used as 10 mM stock solutions in DMSO (Sigma-Aldrich; BioUltra grade).
# Assay samples were aspirated under vacuum for 0.4 s, then loaded onto a C4 solid phase extraction (SPE) cartridge. After loading, the C4 SPE cartridge was washed with 0.1%v/v aqueous formic acid to remove non-volatile buffer salts (5 s, 1.5 mL min^−1). The peptide was eluted from the SPE cartridge with 0.1%v/v aqueous formic acid in 75/25v/v acetonitrile/water into the mass spectrometer (5 s, 1.6 mL min^−1) and the SPE cartridge re-equilibrated with 0.1%v/v aqueous formic acid (1 s, 1.25 mL min^−1).
# Peaks corresponding to the m/z +5 charge states of the BRD-derived substrate peptide and the hydroxylated product peptides were extracted from the ion chromatogram and integrated using RapidFire Integrator 4.3.0 (Agilent). Peak area data were exported into Microsoft Excel and used to calculate the relative abundance of the mono-hydroxylated product peptide using the following equation: […]
# The concentration of the mono-hydroxylated product peptide was calculated by multiplying the %-fraction of the mono-hydroxylated product peptide by the initial concentration of the substrate peptide employed in the assay. Initial reaction velocities were then calculated and fitted to a Michaelis–Menten plot using nonlinear regression (GraphPad Prism 5).
# [5] = tested on: FIH; set-up: method as in PMID 34759269; conditions: FIH (0.15 μM), HIF-1α789–822 as substrate; SPE-MS; cited from earlier work
# [6] = tested on: JMJD5; set-up: method as in PMID 37292060; conditions: JMJD5 (0.15 μM), RSP6_128–148 as substrate; SPE-MS; 2OG or Fe(II); cited from earlier work
smiles,measurement,setting,value
"O=C(O)CCC(=O)C(=O)O [2OG, 2-oxoglutarate]",K^app m,[1],~150 µM and 153 ± 44 µM
same,k cat/Km,[1],10000 ± 3000 M⁻¹ s⁻¹
same,k^app cat,[1],1.6 ± 0.1 s⁻¹
same,k cat/Km,[2],28500 ± 1300 M⁻¹ s⁻¹
same,k cat/Km,[3],320000 ± 70000 M⁻¹ s⁻¹
same,apparent maximum velocity v^app max,"[4]; 2OG or Fe(II) varied, BRD4_511–550 (2 μM) as substrate, 0.05 μM full-length His6-JMJD6, LAA 100 μM, 50 mM Tris pH 7.5, ambient temperature, ~20 min, SPE-MS, mean ± SD n = 3",3.5 ± 0.1 nM/s
same,apparent turnover number k^app cat,"[4]; 2OG or Fe(II) varied, BRD4_511–550 (2 μM) as substrate, 0.05 μM full-length His6-JMJD6, pH 7.5, ambient temperature, calculated from v^app max assuming active JMJD6 = total enzyme, n = 3",0.070 ± 0.002 s⁻¹
same,specificity constant kcat/Km,"[4]; 2OG or Fe(II) varied, BRD4_511–550 (2 μM) as substrate, 0.05 μM full-length His6-JMJD6, pH 7.5, ambient temperature, n = 3",3000 ± 400 M⁻¹ s⁻¹
same,K^app m for 2OG: fold less than that of BBOX,[4]; JMJD6 versus isolated human BBOX (1H NMR turnover assays),~6 fold
same,k cat/Km,[5],47600 ± 12500 M⁻¹ s⁻¹
same,k cat/Km,[6],19300 ± 5800 M⁻¹ s⁻¹
